Results reported in ChEMBL document CHEMBL1142444 (Bioorg Med Chem Lett, 2008).

The chains behind the UniProt entries cited, without tags or fusion partners.
UniProt P20309, whole entry: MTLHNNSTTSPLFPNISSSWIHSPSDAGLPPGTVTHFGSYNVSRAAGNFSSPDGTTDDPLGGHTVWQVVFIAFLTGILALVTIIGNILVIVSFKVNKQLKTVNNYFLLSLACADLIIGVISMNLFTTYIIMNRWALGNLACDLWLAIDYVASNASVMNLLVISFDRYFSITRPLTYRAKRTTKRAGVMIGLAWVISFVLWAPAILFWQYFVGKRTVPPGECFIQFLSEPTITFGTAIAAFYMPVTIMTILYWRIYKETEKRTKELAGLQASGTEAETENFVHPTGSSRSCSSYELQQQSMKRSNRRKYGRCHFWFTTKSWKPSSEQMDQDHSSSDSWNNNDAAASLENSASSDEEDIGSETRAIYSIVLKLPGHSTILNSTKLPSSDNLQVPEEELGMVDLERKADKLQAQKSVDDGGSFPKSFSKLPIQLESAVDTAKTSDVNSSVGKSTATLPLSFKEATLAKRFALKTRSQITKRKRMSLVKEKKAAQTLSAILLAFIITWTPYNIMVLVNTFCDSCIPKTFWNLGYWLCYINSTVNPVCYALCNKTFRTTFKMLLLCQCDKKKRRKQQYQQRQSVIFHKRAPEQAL

Target: Muscarinic acetylcholine receptor M3 (Homo sapiens, UniProt P20309)
Test: Agonist activity at muscarinic M3 receptor
Type: functional

Question: With CCOC(=O)N1CCC(N2CCC(n3c(=O)[nH]c4ccccc43)CC2)CC1 as the molecule, how does the EC50 read?
Answer: 113 nM
